From patent US10328077B2 (CELGENE CORPORATION, priority 2016, dated 2019)

Test: 4-week toxicity study with 4-week recovery in mice (incl. TK)

With `COc1ccc(-c2c(-c3ccc(C#N)c(F)c3)nc(N3CCC(N)CC3)n(C)c2=O)cc1F` [Compound A, 4-[2-(4-amino-piperidin-1-yl)-5-(3-fluoro-4-methoxy-phenyl)-1-methyl-6-oxo-1,6-dihydro-pyrimidin-4-yl]-2-fluoro-benzonitrile] the “animals sacrificed in moribund condition” value (45 mg base/kg/dose QD×5/week, TK subgroup) was “Five”, the reversibility of findings (4-week treatment-free period) was “partial to complete reversibility” and the “Compound A-related adverse findings” value (4 weeks oral, 5, 15, 45 (QD×5/week) or 25 (QOD×3/week) mg base/kg/dose, dose as stated with each finding) was “Rough haircoat at ≥15 mg base/kg/dose; also recorded: Marked decreases in platelet and reticulocyte counts at 45 mg base/kg/dose; also recorded: Minimal to marked fibrosis in the medullary space of the sternum; also recorded: Minimal to moderate increase in periosteal, endosteal, and trabecular lamellar bone (hyperostosis); also recorded: Minimal to moderate myeloid hyperplasia in the bone marrow of the sternum at ≥15 mg base/kg/dose; also recorded: Moderate fibrosis in the femoral bone marrow at 45 mg base/kg/dose; also recorded: Minimal to marked depletion of marginal zone lymphocytes in the spleen”.

Entries after “also recorded” stand apart in the source; their conditions may differ.
